Assay [1] in a line: Ratio between Ki values of D2 and S-3 receptors.
A short description of assay [2]: Ratio between Ki values of D2 and S-2A receptors.

In the case of `CN1CCN(C2=Cc3cc(Cl)ccc3Cc3ccccc32)CC1`, the Ratio in assay [1] was found to be 4.3; in assay [2] it was 200.
Regarding `CN1CCN(C2=Nc3cc(Cl)ccc3Oc3ccccc32)CC1` [ISOLOXAPINE], the Ratio amounted to 3.8 in assay [1] and 14 in assay [2].

The values are drawn from ChEMBL document CHEMBL1127435 (J Med Chem, 1994).
